Measured values taken from publication PMC4774891 (Pharmaceutical research, 2015).

Tested on: A431 cells
Assay: Clonogenic
Format: cell-based, human
Settings: Gef 0.5, 2 μM; Gef-SD 2 μM; 48 h treatment, 2 weeks growth

## COc1cc2ncnc(Nc3ccc(F)c(Cl)c3)c2cc1OCCCN1CCOCC1 [Gef free drug, Gefitinib]
  effect on number of colonies and colony sizes: significant reduction in the number of colonies and colony sizes
